Consider one compound from ChEMBL document CHEMBL5365464, “Structure-Based Optimization of the Third Generation Type II Macrocycle TRK Inhibitors with Improved Activity against Solvent-Front, xDFG, and Gatekeeper Mutations” (J Med Chem, 2023).

By UniProt entry, the sequences of proteins in these tests, tags left out. Where a name states a change or a piece, a line headed by the entry shows the natural chain unless it says otherwise.
UniProt Q3UFB7, whole entry, looked up, stated change not applied: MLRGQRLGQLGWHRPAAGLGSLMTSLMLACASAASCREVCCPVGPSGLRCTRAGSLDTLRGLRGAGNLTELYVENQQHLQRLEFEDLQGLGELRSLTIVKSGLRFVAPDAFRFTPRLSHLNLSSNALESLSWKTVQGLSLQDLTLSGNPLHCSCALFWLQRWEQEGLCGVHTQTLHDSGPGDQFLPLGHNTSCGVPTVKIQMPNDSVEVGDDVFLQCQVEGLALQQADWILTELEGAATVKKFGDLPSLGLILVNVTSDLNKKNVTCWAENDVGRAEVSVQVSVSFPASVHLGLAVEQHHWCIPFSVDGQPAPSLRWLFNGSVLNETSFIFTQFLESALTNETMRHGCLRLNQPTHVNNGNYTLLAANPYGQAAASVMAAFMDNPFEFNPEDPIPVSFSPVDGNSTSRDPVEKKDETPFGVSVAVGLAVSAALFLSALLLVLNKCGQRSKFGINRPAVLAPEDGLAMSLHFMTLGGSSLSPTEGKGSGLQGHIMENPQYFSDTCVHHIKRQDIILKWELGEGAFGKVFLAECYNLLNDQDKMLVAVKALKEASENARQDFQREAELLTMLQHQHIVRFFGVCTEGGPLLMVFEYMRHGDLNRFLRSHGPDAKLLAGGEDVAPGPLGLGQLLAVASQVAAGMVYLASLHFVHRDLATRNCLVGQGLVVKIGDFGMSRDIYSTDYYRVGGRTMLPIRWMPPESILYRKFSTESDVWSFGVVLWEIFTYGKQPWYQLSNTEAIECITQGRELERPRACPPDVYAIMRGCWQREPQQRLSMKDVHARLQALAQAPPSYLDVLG
UniProt P29317, whole entry: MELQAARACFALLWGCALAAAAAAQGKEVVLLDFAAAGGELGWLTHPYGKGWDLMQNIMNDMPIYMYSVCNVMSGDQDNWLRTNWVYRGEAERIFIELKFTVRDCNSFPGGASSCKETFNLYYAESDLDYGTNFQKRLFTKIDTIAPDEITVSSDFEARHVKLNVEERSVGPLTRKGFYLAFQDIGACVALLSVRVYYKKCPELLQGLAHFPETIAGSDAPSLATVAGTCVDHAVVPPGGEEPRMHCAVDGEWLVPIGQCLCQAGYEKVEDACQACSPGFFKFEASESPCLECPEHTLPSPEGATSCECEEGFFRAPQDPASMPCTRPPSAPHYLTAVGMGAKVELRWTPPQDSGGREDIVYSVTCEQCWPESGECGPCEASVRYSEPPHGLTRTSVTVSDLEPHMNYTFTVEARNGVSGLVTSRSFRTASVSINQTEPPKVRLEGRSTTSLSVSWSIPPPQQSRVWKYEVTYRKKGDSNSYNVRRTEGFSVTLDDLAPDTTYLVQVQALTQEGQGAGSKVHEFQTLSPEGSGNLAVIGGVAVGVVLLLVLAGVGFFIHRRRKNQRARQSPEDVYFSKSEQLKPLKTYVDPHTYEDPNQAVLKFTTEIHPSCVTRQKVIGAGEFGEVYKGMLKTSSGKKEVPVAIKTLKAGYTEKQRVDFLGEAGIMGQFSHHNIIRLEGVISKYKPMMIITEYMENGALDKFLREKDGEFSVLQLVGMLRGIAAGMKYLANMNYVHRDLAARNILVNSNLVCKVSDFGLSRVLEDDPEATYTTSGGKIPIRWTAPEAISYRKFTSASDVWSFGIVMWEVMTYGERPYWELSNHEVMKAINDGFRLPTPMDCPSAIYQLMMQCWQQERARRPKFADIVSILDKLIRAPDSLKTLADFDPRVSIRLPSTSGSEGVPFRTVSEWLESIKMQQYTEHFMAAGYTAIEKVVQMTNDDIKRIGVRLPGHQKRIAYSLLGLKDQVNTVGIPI
UniProt Q15349: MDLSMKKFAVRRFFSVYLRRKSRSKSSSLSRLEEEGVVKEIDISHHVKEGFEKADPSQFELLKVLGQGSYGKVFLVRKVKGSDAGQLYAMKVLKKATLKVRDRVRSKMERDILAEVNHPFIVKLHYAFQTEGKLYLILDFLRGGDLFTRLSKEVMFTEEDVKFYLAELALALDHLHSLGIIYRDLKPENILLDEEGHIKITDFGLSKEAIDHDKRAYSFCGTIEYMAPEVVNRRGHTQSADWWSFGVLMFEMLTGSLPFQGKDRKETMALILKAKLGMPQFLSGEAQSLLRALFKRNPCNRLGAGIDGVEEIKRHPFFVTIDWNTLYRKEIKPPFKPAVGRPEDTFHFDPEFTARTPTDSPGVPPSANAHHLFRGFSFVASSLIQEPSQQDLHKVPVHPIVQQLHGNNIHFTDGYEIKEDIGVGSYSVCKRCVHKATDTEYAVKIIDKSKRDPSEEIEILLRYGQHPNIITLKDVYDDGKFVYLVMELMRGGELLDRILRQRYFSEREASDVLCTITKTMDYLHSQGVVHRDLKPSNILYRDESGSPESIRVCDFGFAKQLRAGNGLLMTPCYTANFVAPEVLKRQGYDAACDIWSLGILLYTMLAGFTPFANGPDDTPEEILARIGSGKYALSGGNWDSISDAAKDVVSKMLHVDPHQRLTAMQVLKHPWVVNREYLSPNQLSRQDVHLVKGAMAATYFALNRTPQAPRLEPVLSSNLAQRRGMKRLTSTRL
UniProt Q08345: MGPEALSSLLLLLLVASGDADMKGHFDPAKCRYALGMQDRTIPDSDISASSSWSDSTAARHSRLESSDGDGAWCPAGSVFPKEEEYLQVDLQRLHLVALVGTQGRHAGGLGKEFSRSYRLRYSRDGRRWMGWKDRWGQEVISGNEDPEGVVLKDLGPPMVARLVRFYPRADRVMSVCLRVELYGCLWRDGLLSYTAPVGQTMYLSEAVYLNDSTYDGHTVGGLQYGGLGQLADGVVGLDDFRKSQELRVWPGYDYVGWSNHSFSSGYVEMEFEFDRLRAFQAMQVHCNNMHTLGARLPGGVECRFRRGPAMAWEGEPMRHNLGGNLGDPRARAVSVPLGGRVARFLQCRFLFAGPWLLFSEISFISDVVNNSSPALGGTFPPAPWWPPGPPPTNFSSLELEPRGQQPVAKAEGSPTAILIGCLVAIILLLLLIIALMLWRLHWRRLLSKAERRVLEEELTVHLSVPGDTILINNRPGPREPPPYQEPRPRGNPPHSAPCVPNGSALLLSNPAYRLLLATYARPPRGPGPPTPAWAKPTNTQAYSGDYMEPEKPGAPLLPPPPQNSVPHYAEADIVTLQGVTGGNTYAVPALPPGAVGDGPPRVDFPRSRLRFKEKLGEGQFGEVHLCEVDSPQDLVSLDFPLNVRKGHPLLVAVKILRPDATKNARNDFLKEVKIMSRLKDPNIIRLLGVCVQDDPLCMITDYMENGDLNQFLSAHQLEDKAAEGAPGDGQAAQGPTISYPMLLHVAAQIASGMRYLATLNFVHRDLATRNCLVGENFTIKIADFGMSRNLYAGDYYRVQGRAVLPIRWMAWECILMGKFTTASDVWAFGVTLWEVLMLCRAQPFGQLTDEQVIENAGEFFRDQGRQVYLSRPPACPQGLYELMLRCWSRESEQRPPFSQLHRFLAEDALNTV
UniProt P35968, whole entry: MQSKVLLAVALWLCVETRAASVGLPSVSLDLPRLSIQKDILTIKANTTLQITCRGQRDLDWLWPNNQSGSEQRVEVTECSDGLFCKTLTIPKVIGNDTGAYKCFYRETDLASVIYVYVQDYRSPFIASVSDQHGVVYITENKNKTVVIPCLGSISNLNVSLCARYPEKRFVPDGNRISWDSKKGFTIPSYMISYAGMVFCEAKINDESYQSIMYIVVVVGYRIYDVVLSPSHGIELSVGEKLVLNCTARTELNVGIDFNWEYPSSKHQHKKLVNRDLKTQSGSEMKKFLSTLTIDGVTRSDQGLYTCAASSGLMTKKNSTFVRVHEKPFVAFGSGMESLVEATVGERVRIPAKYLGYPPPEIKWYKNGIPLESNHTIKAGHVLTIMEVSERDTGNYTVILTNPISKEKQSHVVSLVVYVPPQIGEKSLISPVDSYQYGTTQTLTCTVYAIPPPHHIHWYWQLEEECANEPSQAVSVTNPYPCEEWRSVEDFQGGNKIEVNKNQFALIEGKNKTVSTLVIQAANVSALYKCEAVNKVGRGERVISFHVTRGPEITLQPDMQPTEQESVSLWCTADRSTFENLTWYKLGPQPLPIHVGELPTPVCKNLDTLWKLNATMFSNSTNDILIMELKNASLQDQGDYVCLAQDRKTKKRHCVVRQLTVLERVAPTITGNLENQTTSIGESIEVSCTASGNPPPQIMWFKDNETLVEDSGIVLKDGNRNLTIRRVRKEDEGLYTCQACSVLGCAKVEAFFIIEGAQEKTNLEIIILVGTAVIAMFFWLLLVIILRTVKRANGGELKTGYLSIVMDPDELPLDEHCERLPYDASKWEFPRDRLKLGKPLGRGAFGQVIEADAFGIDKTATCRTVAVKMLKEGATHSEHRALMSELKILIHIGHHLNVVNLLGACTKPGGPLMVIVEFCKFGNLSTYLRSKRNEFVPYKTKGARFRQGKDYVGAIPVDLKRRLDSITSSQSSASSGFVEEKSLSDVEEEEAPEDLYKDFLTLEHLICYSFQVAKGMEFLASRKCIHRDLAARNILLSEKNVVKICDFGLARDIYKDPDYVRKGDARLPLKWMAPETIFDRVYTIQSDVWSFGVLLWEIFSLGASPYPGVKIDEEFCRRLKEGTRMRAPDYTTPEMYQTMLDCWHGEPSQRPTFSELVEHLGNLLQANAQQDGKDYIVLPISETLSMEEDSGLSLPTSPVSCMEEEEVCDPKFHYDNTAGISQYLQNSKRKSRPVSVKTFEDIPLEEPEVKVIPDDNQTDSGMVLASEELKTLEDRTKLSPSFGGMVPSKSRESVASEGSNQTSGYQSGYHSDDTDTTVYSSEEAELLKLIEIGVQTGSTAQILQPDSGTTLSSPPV
UniProt P07949, whole entry: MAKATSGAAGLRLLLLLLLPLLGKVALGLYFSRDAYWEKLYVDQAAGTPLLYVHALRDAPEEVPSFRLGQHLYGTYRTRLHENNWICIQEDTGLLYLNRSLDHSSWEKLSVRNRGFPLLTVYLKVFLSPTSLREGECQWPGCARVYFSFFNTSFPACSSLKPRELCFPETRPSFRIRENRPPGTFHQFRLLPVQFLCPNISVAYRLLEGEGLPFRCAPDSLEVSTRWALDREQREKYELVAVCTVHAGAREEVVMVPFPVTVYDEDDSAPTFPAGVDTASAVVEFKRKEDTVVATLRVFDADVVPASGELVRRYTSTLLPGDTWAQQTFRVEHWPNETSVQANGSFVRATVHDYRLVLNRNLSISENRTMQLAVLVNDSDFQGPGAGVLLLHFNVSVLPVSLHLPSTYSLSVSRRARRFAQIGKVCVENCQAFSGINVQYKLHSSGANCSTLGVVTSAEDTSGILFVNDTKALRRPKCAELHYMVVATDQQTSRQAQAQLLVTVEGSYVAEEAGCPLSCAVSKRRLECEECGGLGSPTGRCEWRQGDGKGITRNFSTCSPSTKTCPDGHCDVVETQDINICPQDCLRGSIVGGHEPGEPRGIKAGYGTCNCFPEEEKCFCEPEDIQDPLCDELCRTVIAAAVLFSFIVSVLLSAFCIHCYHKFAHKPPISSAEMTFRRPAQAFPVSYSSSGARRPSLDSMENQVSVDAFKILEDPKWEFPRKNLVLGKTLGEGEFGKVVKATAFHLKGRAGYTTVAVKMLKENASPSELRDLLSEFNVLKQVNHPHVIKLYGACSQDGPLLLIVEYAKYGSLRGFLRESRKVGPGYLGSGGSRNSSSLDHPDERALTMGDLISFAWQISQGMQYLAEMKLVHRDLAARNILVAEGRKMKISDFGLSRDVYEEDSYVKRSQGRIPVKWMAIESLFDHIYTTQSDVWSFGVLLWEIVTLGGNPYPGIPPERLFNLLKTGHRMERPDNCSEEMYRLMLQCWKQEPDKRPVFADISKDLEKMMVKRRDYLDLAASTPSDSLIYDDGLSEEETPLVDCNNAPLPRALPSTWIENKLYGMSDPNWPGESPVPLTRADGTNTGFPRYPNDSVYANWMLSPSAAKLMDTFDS
UniProt P08631: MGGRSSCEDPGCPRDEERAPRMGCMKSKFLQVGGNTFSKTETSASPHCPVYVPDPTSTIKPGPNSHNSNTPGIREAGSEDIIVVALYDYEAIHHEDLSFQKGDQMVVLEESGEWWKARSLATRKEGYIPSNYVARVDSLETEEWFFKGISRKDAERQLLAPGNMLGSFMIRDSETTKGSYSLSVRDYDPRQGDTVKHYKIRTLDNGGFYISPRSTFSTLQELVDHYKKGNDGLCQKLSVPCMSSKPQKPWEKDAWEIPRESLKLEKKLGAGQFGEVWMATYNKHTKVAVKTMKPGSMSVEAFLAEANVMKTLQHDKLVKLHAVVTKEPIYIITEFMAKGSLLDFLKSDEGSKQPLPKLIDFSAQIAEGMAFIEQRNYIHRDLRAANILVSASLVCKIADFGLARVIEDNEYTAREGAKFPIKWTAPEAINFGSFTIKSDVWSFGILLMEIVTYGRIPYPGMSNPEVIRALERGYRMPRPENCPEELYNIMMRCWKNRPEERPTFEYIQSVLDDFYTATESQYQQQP

The subject of assay [1] is High affinity nerve growth factor receptor (Mus musculus), Q3UFB7 [UNDEFINED MUTATION]. The following applies: BaF3, dose <= 300.0 nM, time 6.0 hrs.
For assay [2], the target named is Vascular endothelial growth factor receptor 3 (Homo sapiens, UniProt P35916). The following applies: dose 1000.0 nM.
The next assay addresses Ephrin type-A receptor 2 (Homo sapiens, UniProt P29317). The following applies: dose 1000.0 nM.
The target in assay [3] is Ribosomal protein S6 kinase (Homo sapiens) (UniProt P51812+Q9UBS0+O75676+Q15349+O75582+P23443+Q9UK32+Q15418). The following applies: dose 1000.0 nM.
In assay [4] the target is T1, Tyrosine-protein kinase receptor UFO (Homo sapiens) (UniProt P30530).
T1 sequence (whole entry): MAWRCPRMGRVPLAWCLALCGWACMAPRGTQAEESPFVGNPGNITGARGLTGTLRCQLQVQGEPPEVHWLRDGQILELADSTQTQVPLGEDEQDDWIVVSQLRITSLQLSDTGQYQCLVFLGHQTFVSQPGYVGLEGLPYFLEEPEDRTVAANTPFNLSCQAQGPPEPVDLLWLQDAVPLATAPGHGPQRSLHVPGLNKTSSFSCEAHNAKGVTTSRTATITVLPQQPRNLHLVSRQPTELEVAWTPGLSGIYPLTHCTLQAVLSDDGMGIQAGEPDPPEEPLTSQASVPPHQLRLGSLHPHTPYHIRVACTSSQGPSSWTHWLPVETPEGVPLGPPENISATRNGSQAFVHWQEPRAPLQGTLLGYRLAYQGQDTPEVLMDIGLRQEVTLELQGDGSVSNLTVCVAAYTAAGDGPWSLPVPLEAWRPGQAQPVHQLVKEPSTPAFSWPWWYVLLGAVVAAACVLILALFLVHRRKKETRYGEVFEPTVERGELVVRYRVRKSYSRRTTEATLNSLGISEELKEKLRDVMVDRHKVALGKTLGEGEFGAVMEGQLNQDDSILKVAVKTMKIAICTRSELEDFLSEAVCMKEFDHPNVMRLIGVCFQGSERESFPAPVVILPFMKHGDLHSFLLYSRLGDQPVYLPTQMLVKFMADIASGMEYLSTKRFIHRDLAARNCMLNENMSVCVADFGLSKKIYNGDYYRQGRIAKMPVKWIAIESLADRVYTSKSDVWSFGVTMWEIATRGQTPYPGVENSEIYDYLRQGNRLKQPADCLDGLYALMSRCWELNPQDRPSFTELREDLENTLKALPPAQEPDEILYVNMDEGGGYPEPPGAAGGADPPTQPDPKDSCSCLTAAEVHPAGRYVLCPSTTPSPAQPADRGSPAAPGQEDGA
The following applies: dose 1000.0 nM.

The target of assay [5] is Epithelial discoidin domain-containing receptor 1 (Homo sapiens, UniProt Q08345). The following applies: dose 1000.0 nM.
The target in assay [6] is High affinity nerve growth factor receptor (Mus musculus) (UniProt Q3UFB7). The following applies: BaF3, dose <= 300.0 nM, time 6.0 hrs.
Assay [7] concerns the target T2, Tyrosine-protein kinase Mer (Homo sapiens) (UniProt Q12866).
T2 sequence (whole entry): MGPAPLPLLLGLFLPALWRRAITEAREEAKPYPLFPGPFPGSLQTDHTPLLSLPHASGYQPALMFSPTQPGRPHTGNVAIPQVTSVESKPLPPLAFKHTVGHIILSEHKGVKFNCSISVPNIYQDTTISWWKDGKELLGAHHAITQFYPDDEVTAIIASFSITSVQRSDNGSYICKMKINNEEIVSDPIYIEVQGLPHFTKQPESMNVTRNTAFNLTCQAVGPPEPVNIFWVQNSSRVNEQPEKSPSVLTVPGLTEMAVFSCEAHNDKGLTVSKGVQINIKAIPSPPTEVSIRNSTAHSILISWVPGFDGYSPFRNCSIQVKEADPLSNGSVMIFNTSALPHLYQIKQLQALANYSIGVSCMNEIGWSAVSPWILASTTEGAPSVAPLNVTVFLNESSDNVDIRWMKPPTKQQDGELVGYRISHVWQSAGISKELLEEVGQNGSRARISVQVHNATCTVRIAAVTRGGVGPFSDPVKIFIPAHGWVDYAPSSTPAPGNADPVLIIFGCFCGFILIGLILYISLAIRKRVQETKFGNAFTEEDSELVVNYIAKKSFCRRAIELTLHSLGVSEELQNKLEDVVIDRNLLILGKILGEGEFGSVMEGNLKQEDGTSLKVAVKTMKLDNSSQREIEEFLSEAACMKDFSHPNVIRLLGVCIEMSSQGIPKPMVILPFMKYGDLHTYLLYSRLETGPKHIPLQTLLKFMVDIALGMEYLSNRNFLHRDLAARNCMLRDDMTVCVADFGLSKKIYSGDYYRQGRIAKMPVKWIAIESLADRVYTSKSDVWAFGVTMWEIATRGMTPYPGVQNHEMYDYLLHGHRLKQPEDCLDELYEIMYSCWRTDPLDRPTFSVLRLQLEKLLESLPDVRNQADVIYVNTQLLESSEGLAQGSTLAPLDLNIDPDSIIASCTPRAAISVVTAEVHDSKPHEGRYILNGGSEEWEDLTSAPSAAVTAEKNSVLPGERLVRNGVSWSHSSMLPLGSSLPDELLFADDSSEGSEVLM
The following applies: dose 1000.0 nM.

The target of assay [8] is T3, Muscle, skeletal receptor tyrosine-protein kinase (Homo sapiens) (UniProt O15146).
T3 sequence (whole entry): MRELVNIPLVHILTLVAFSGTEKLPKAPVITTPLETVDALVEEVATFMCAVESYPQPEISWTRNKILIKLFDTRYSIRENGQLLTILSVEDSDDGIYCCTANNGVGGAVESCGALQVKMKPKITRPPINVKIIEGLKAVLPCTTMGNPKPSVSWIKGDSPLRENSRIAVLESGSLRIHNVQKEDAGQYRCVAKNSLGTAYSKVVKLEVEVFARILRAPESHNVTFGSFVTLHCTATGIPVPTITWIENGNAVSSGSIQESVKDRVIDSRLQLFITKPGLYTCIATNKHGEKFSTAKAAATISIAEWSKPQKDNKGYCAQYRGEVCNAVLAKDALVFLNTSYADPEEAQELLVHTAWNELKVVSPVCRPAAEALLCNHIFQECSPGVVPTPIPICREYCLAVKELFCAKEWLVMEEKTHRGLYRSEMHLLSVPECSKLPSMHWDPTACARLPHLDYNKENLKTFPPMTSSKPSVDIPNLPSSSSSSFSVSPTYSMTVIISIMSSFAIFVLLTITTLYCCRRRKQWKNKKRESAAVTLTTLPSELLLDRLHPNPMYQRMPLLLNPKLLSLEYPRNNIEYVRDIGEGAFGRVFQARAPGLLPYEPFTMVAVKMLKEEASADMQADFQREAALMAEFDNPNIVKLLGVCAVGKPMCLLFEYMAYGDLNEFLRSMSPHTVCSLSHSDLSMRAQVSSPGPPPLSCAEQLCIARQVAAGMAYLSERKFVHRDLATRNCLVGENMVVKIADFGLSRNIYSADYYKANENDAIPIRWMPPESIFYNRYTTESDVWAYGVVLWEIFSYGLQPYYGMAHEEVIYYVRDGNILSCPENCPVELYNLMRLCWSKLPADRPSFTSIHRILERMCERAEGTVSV
The following applies: dose 1000.0 nM.

In another assay the target is Ephrin type-A receptor 7 (Homo sapiens, UniProt Q15375). The following applies: dose 1000.0 nM.
In assay [9] the target is Cyclin-dependent kinase 14 (Homo sapiens, UniProt O94921). The following applies: dose 1000.0 nM.
Assay [10] deals with High affinity nerve growth factor receptor (Mus musculus), Q3UFB7 [UNDEFINED MUTATION]. The following applies: BaF3, dose <= 300.0 nM, time 6.0 hrs. The source holds these as a separate data set.
A further assay concerns the target Angiopoietin-1 receptor (Homo sapiens, UniProt Q02763). The following applies: dose 1000.0 nM.
Assay [11] concerns High affinity nerve growth factor receptor (Mus musculus), Q3UFB7 [UNDEFINED MUTATION]. The following applies: BaF3, dose <= 300.0 nM, time 6.0 hrs. This is another data set of the same source.
Assay [12] deals with Vascular endothelial growth factor receptor 2 (Homo sapiens, UniProt P35968). The following applies: dose 1000.0 nM.
A further assay has as its target Ephrin type-A receptor 5 (Homo sapiens, UniProt P54756). The following applies: dose 1000.0 nM.
For assay [13], the target named is Proto-oncogene tyrosine-protein kinase receptor Ret (Homo sapiens, UniProt P07949). The following applies: dose 1000.0 nM.
The target in assay [14] is Tyrosine-protein kinase HCK (Homo sapiens, UniProt P08631). The following applies: dose 1000.0 nM.
Assay [15] concerns High affinity nerve growth factor receptor (Mus musculus), Q3UFB7 [UNDEFINED MUTATION]. The following applies: BaF3, dose <= 300.0 nM, time 6.0 hrs. The source holds these as a separate data set.
Assay [16] deals with Receptor-type tyrosine-protein kinase FLT3 (Homo sapiens, UniProt P36888). The following applies: dose 1000.0 nM.

For orientation: inhibition means the change of the read-out against control, counted positive when it falls. Consider `Cc1c2cc(cc1C(=O)Nc1cc(CN3CCN(C)CC3)cc(C3CC3)c1)OCCCCCCCNC(=O)c1ccc3ncc(n3n1)C#C2`, for which the inhibition result in assay [1] was “Dose-Dependent Effect”; in [2], 6%; at Ephrin type-A receptor 2, -4%; in [3] it was 9%; in assay [4], 4%; in [5], 4%. The inhibition result in assay [6] is “Dose-Dependent Effect”; in [7] it was 2%; in assay [8], 1%; on Ephrin type-A receptor 7, 3%; in assay [9], 7%; in assay [10] it was “Dose-Dependent Effect”. Further, the inhibition against Angiopoietin-1 receptor was 0%; in assay [11], “Dose-Dependent Effect”; in [12] it was 1%; against Ephrin type-A receptor 5, 0%; in assay [13], 8%; in assay [14] it was 3%. Also, the inhibition entry in [15] was “Dose-Dependent Effect”; in assay [16] it was 8%.
